Patent US20030162222A1, “Method for selecting enzyme inhibitors” (priority 2000, published 2003)

Sequences of proteins named here, by UniProt entry; tags and fusion partners are left off. Residues count along the entry.
UniProt P08631, whole entry T333I: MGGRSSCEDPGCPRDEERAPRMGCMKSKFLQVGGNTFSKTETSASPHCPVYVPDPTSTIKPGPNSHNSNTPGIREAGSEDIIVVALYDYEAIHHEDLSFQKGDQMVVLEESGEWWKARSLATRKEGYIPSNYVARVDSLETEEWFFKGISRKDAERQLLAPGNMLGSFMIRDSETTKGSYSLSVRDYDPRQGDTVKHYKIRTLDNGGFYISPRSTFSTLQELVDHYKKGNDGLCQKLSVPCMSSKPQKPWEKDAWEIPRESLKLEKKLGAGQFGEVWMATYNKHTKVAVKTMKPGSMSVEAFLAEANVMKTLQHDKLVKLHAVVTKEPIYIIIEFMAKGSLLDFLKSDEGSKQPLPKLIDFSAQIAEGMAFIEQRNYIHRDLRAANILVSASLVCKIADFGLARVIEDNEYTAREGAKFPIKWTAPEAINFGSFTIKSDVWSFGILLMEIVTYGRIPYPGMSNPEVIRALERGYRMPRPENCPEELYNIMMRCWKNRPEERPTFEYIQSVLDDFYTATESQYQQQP
UniProt P08631, whole entry T333M: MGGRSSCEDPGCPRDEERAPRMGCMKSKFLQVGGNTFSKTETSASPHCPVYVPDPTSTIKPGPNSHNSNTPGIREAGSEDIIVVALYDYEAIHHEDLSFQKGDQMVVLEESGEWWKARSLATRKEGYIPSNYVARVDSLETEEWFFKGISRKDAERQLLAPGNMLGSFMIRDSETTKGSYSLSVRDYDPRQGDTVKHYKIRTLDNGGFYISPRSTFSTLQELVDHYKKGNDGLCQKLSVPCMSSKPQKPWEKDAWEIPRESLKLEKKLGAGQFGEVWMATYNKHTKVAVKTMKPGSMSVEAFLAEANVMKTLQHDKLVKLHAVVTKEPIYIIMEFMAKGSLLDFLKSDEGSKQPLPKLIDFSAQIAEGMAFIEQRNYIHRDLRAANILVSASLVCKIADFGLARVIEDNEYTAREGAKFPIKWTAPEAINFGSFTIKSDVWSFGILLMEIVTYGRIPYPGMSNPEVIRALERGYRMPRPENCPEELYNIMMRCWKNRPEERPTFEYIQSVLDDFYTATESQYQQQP
UniProt P08631, 2-526 A398C: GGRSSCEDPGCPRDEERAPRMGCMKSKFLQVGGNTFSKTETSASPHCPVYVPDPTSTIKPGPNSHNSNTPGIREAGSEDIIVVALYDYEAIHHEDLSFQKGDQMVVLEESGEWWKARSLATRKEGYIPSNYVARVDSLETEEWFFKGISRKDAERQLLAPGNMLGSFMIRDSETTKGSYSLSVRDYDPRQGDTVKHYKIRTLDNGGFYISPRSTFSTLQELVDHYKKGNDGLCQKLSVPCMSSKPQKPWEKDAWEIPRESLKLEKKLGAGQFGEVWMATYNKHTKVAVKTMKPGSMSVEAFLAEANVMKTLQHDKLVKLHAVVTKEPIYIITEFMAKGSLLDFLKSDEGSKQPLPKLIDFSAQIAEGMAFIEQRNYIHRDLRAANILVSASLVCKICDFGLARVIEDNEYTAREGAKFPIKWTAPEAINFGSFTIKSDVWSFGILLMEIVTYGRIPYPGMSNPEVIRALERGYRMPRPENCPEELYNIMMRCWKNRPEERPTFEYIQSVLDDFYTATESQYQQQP
UniProt P08631, 23-526 A398S: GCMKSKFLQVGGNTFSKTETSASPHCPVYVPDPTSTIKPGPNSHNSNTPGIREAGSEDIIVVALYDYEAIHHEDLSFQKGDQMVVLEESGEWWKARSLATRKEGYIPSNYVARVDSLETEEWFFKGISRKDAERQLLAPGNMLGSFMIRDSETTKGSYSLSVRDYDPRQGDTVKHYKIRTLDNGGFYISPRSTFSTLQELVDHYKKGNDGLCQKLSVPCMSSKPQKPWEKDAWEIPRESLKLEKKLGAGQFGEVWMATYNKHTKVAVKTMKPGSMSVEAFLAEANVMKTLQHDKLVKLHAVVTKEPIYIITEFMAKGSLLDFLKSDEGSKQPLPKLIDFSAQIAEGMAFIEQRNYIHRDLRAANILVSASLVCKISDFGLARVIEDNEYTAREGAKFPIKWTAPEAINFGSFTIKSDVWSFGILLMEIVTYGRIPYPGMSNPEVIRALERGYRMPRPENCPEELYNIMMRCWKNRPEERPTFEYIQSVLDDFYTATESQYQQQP
UniProt P08631, whole entry T333Q: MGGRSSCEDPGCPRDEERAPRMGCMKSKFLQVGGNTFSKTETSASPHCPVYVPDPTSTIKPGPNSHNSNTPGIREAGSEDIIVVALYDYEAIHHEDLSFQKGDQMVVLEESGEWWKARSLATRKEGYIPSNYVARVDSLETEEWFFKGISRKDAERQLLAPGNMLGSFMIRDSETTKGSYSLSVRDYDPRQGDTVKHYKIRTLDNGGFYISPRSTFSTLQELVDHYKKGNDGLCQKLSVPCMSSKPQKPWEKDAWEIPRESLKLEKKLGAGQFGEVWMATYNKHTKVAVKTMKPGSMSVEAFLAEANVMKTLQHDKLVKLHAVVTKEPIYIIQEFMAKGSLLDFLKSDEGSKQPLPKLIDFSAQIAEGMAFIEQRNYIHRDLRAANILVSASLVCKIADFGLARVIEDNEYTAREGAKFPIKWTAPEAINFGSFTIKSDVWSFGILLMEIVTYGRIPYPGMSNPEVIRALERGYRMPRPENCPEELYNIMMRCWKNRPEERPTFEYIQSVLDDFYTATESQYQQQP
UniProt P08631, 2-526 A398T: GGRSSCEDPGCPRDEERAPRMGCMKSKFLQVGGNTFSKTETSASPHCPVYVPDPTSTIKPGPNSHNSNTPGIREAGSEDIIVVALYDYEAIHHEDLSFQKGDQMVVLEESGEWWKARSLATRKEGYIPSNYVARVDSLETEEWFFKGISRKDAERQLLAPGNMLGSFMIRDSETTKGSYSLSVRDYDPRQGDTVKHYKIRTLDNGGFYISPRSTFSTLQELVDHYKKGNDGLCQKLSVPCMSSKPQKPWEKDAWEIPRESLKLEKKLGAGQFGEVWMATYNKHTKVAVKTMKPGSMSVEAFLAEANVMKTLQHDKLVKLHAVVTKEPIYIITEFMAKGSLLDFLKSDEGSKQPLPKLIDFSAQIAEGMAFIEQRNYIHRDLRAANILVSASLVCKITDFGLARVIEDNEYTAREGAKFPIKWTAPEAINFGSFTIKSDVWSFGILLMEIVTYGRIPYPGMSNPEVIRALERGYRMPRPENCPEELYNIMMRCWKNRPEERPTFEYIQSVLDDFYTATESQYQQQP
UniProt P08631, whole entry T333F: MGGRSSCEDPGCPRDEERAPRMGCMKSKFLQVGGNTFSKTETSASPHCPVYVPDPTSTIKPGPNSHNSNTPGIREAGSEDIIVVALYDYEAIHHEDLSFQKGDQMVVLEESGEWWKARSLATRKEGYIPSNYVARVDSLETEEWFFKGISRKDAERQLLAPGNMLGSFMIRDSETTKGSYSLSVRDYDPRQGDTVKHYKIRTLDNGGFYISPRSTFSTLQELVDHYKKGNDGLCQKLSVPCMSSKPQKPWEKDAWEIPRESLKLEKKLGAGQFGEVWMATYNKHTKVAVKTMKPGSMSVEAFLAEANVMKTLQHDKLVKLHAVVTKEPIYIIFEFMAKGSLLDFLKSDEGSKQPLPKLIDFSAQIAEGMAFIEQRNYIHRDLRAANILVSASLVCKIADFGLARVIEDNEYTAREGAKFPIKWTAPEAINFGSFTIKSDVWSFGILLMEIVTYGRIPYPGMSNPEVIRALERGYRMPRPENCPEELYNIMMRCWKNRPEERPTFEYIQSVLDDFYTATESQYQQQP
UniProt P08631, whole entry T333V: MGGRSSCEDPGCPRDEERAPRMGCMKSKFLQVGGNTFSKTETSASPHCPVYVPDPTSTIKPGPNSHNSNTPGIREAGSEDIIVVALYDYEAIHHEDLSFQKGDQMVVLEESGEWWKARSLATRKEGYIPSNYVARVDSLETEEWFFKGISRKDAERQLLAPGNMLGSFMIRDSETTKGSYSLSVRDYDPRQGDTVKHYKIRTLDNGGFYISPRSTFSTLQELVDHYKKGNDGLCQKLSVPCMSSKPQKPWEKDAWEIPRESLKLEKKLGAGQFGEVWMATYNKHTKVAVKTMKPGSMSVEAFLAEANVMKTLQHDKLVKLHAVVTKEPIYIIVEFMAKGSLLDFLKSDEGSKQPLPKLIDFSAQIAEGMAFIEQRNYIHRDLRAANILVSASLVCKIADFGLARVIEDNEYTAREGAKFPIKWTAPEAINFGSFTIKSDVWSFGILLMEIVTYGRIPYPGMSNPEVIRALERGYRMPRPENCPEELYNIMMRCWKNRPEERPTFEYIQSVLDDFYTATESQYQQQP
UniProt P08631, whole entry T333L: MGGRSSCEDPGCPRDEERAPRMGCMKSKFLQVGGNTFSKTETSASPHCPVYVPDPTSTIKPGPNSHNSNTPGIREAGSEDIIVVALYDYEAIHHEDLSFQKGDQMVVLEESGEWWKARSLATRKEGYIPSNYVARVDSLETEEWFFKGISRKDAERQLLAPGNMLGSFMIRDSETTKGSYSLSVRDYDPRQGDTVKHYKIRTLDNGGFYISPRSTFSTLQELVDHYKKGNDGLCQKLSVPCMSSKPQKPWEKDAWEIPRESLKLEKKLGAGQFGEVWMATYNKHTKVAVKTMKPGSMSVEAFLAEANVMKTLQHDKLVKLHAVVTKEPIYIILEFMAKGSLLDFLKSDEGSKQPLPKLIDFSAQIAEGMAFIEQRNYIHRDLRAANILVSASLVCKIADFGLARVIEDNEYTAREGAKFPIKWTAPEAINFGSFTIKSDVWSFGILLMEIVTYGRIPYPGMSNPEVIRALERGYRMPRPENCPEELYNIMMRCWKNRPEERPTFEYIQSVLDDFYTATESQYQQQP

Tests used:
Format in all cases: cell-based
Src kinase Hck Thr338Ile = target: T1, Src kinase Hck Thr338Ile (Homo sapiens, UniProt P08631, T333I); assay: Tyrosine phosphorylation in Cos7 cells expressing Hck mutant, with/without inhibitor; details: PP1 incubation prior to lysis
T1 construct: expressed in transfected cells; host or cells: Cos7 cells, pApuro vector

Src kinase Hck Thr338Met = target: T2, Src kinase Hck Thr338Met (Homo sapiens, UniProt P08631, T333M); assay: as above; details: PP1 incubation prior to lysis
T2 construct: expressed in transfected cells; host or cells: Cos7 cells, pApuro vector

Src kinase Hck Ala403Cys = target: T3, Src kinase Hck Ala403Cys (Homo sapiens, UniProt P08631, A398C); assay: as above; details: PP1 incubation prior to lysis
T3 construct: expressed in transfected cells; host or cells: Cos7 cells, pApuro vector

wt Src kinase Hck = target: T4, wt Src kinase Hck (Homo sapiens, UniProt P08631); assay: Tyrosine phosphorylation in Cos7 cells expressing wt Hck, with/without inhibitor (Western blot, PY99); details: PP1 incubation prior to lysis (25 μM, 100 μM elsewhere in the source)
T4 construct: expressed in transfected cells; host or cells: Cos7 cells, pApuro vector

Src kinase Hck Ala403Ser = target: T5, Src kinase Hck Ala403Ser (Homo sapiens, UniProt P08631, A398S); assay: Tyrosine phosphorylation in Cos7 cells expressing Hck mutant, with/without inhibitor; details: PP1 incubation prior to lysis
T5 construct: expressed in transfected cells; host or cells: Cos7 cells, pApuro vector

Src kinase Hck Thr338Gln = target: T6, Src kinase Hck Thr338Gln (Homo sapiens, UniProt P08631, T333Q); assay: as above; details: PP1 incubation prior to lysis
T6 construct: expressed in transfected cells; host or cells: Cos7 cells, pApuro vector

Src kinase Hck Ala403Thr = target: T7, Src kinase Hck Ala403Thr (Homo sapiens, UniProt P08631, A398T); assay: as above; details: PP1 incubation prior to lysis
T7 construct: expressed in transfected cells; host or cells: Cos7 cells, pApuro vector

Src kinase Hck Thr338Phe = target: T8, Src kinase Hck Thr338Phe (Homo sapiens, UniProt P08631, T333F); assay: as above; details: PP1 incubation prior to lysis
T8 construct: expressed in transfected cells; host or cells: Cos7 cells, pApuro vector

Src kinase Hck Thr338Val = target: T9, Src kinase Hck Thr338Val (Homo sapiens, UniProt P08631, T333V); assay: as above; details: PP1 incubation prior to lysis
T9 construct: expressed in transfected cells; host or cells: Cos7 cells, pApuro vector

Src kinase Hck Thr338Leu = target: T10, Src kinase Hck Thr338Leu (Homo sapiens, UniProt P08631, T333L); assay: as above; details: PP1 incubation prior to lysis
T10 construct: expressed in transfected cells; host or cells: Cos7 cells, pApuro vector

Cc1ccc(-c2nn(C(C)(C)C)c3ncnc(N)c23)cc1 [PP1]
Inhibited by PP1 (Src kinase Hck Thr338Ile): not inhibited and remains largely unchanged and could no longer be inhibited and no
Inhibited by PP1 (Src kinase Hck Thr338Met): not inhibited and remains largely unchanged and could no longer be inhibited and no
Inhibited by PP1 (Src kinase Hck Ala403Cys): inhibited and The same applies and yes
Inhibited by PP1 (wt Src kinase Hck): inhibited and cancels the phosphorylation induced by wt Hck or considerably reduces it and yes
Inhibited by PP1 (Src kinase Hck Ala403Ser): inhibited and The same applies and yes
Inhibited by PP1 (Src kinase Hck Thr338Gln): not inhibited and remains largely unchanged and could no longer be inhibited and no
Inhibited by PP1 (Src kinase Hck Ala403Thr): inhibited and The same applies and yes
Inhibited by PP1 (Src kinase Hck Thr338Phe): not inhibited and remains largely unchanged and could no longer be inhibited and no
Inhibited by PP1 (Src kinase Hck Thr338Val): inhibited and The same applies and yes
Inhibited by PP1 (Src kinase Hck Thr338Leu): not inhibited and remains largely unchanged and could no longer be inhibited and no
